Experimental data as given in ChEMBL document CHEMBL5338786, “In Silico-Guided Rational Drug Design and Synthesis of Novel 4-(Thiophen-2-yl)butanamides as Potent and Selective TRPV1 Agonists” (J Med Chem, 2023).

Chains of the proteins cited; added tags and fusions are not shown.
UniProt Q9ERZ8, whole entry: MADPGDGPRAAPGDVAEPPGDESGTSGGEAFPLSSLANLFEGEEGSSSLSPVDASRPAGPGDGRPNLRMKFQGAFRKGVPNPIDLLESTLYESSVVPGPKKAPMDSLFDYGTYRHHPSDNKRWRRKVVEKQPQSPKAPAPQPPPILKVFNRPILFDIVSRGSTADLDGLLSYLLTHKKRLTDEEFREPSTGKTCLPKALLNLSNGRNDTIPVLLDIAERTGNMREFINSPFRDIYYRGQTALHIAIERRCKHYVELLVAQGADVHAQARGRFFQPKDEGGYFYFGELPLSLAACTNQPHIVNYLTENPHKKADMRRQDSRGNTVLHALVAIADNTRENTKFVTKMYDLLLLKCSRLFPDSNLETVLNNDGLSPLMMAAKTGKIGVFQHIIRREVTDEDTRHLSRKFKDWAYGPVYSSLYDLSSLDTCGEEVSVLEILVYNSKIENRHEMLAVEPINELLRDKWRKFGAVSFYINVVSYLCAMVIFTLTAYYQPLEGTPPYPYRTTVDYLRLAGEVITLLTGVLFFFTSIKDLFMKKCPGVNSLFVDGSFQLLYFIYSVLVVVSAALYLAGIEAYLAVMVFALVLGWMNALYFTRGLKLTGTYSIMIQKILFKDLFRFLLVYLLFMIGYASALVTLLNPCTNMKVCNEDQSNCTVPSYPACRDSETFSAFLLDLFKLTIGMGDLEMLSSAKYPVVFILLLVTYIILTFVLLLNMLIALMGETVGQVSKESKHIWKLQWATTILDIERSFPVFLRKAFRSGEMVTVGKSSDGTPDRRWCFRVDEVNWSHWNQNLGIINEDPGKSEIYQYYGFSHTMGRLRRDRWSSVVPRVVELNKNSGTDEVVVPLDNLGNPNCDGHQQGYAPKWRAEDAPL

target: Transient receptor potential cation channel subfamily V member 4 (Rattus norvegicus) (UniProt Q9ERZ8); assay: Agonist activity at rat recombinant TRPV4 expressed in HEK293 cells assessed as increase in intracellular calcium accumulation by Fluo4-AM based assay; type: cell-based

SMILES	Activity
COc1cc(CNC(=O)CCCc2ccc(-c3cccnc3)s2)ccc1O	inactive
COc1cc(CNC(=O)CCCc2ccc(I)s2)ccc1O	inactive
COc1cc(CNC(=O)CCCc2ccc(-c3ccccc3)s2)ccc1O	inactive

Activity calls are given as the source filed them. The rule behind the calls is not given here.
